## Apparent affinities of Ab-91 variants for a coronavirus HR2 peptide

The target is the same throughout: PDVDLGDISGINAS, from the HR2 region of SARS-CoV-2 spike.

Parent scFv Ab-91: VL joined to VH by a 15-residue (Gly4Ser)3 linker. Changes lie in the heavy chain CDRs alone.
VL: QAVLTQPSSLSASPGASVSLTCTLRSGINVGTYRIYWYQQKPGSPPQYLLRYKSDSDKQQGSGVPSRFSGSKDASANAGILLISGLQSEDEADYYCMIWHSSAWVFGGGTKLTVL
VH: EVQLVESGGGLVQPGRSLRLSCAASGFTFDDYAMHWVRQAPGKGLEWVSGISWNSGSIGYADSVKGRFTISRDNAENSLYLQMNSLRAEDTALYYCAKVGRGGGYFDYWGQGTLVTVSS

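The parent was found by panning a naive human phage display library on the peptide. Library AAYL51 holds single substitutions and randomly drawn double and triple substitutions in the CDRs. AlphaSeq pools MATa yeast showing the antibodies with MATalpha yeast showing the peptide. Binding brings cells together so that they mate, and sequencing counts the barcode pairs among the diploids. Read counts were normalised to the haploid input and turned into Kd by a linear fit to BCL2-family pairs of known affinity, for each replicate. Mating was done three times.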

Substitutions are numbered in sequence along the VH above, starting at 1 (not Kabat).
Values are log10 of the apparent Kd in nM; lower means stronger binding.
A pair that was not seen in that replicate is written "nd"; this usually means weak binding, but a binder can also be missed.

changes,log10 Kd (nM) by replicate,signal with controls
F29T K65C V99F,nd / nd / nd,0 of 9
S57Y G100D Y108N,nd / nd / nd,0 of 9
T28Y N54S G56N,2.50 / 2.37 / 1.93,7 of 9 (5.23)
G50H W53F N54Y,nd / nd / nd,0 of 9
S55G R101L G103H,4.18 / nd / nd,2 of 9 (3.85)
Y32D G59T Y108C,nd / 3.23 / nd,2 of 9 (4.26)
G26C T28Q A61F,nd / 3.08 / nd,0 of 9
D31N S52G F106G,5.24 / nd / 4.63,2 of 9 (4.78)
N54Y I58R R101V,nd / 5.38 / nd,3 of 9 (4.33)
V99N F106L,2.05 / 2.53 / 2.08,0 of 9
M34R H35D G50H,4.62 / 4.98 / 4.34,4 of 9 (4.36)
F27V G59S D107L,nd / nd / nd,5 of 9 (4.54)
A33E S55I V99F,3.39 / 4.68 / nd,6 of 9 (4.73)
D31N S55R A61Q,nd / 5.52 / 5.01,1 of 9 (4.83)
S55W F106G,nd / nd / nd,0 of 9
S57L I58Q G100K,nd / nd / nd,1 of 9 (4.18)
T28D R101S F106D,5.11 / nd / nd,6 of 9 (5.07)
T28Q Y32K M34T,5.73 / nd / nd,1 of 9 (3.72)
T28R G59V G102C,nd / nd / 5.32,4 of 9 (4.75)
T28S D31V K65M,nd / nd / nd,0 of 9
F29P D30V,nd / nd / nd,0 of 9
W53M G56E G103Y,nd / nd / nd,0 of 9
S55G G100K D107M,4.70 / nd / 5.28,5 of 9 (4.28)
A33P G59V S63I,nd / nd / nd,0 of 9
D30H Y32V Y105V,3.91 / 3.35 / 3.77,3 of 9 (4.23)
F29V G50H S63D,nd / nd / nd,0 of 9
G59C F106G D107C,nd / nd / 4.03,0 of 9
A61T G102Q Y108C,nd / nd / nd,5 of 9 (4.43)
S57R I58Q A61F,nd / nd / 3.74,0 of 9
F27H Y32W G59F,nd / nd / nd,0 of 9
M34Q V99G Y105F,nd / 3.76 / nd,0 of 9
F27S K65F D107T,4.38 / nd / nd,1 of 9 (4.68)
V64E V99N G100V,4.92 / 4.92 / nd,5 of 9 (4.65)
N54M V64Y G100S,nd / nd / nd,1 of 9 (4.62)
F27K D30W I51A,nd / nd / nd,0 of 9
F29V D30C,6.47 / 6.71 / nd,4 of 9 (4.62)
S55T V64P,nd / nd / nd,0 of 9
I58A G59L,3.64 / nd / nd,0 of 9
T28C S52N Y60V,3.19 / 3.67 / 3.63,2 of 9 (4.73)

The opening 3 entries, copied out:

{"changes": "F29T K65C V99F", "log10 Kd (nM) by replicate": "nd / nd / nd", "signal with controls": "0 of 9"}
{"changes": "S57Y G100D Y108N", "log10 Kd (nM) by replicate": "nd / nd / nd", "signal with controls": "0 of 9"}
{"changes": "T28Y N54S G56N", "log10 Kd (nM) by replicate": "2.50 / 2.37 / 1.93", "signal with controls": "7 of 9 (5.23)"}

As a blank, each scFv also met three strains without target: over library AAYL51, 21% of these pairings were detected, typically at 4.54 and seldom below 3.26. For each scFv, signals with the empty controls are counted beside the result, with their mean in brackets.

Values reported by Engelhart et al. 2022, doi:10.1038/s41597-022-01779-4 (FLAb copy).